The list shows a part of the results, in another mix than the full data. Active and inactive are the calls of the source.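 Rule for the calls: active = surface receptor percent response at or below 58%, roughly 3 SD from nonfluorescent compounds; inactive = the rest.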

For the assay, the target named is Beta-2 adrenergic receptor (Homo sapiens) (UniProt P07550). Description: agonist-driven loss of surface beta2AR – cell-based, FAP fluorogen, flow cytometry, single point, cherry pick 1, confirmation (AID 540358). As to conditions: Am2.2-beta2AR cells, at 10 µM, stronger effect = lower value.
For `CN(C)C(=O)c1cc([N+](=O)[O-])cc2c1-c1c(cc([N+](=O)[O-])cc1[N+](=O)[O-])C2=O`, the percent response (surface receptor) is active: 19.9%.
